Earlier results, collected in patent publication US7981605B2, “Epidermal growth factor receptor mutations” (Amgen Inc., priority 2005, dated 2011).

Test system: NSCLC tumors with EGFr mutations
Conditions: deletions in amino acids 746-759 region, L858R, L861Q, G719C, G719S, R776C/L858R (Lynch, Paez, Pao 2004)

In the case of COc1cc2ncnc(Nc3ccc(F)c(Cl)c3)c2cc1OCCCN1CCOCC1 [gefitinib], the “sensitivity of NSCLC tumors with EGFr mutations” value is listed as “display sensitivity”.
